System: HeLa cells
Assay: Cell death determination by flow cytometry (Hoechst 33342 / PI)
Type: cell-based
Conditions: MNNG 50 μM 15 min, with or without 100 μM inhibitor pretreatment, 24 h

Substance: N-methyl-N′-nitro-N-nitrosoguanidine
- Cells stained by PI: 50%
